1 compound from patent publication US20240368565A1, “COMPLEMENTATION-BASED TAGS AND REPORTERS FOR DUAL-MODALITY LABELING” (Promega Corporation, priority 2023, published 2024) can be followed below.

The chains behind the UniProt entries cited, without tags or fusion partners. A line that says so, or that is headed by a name, gives the form on record, which may keep a tag or linker. Residues count along the entry.
UniProt P0A3G2, 23-290 with tags or gaps with the stated changes: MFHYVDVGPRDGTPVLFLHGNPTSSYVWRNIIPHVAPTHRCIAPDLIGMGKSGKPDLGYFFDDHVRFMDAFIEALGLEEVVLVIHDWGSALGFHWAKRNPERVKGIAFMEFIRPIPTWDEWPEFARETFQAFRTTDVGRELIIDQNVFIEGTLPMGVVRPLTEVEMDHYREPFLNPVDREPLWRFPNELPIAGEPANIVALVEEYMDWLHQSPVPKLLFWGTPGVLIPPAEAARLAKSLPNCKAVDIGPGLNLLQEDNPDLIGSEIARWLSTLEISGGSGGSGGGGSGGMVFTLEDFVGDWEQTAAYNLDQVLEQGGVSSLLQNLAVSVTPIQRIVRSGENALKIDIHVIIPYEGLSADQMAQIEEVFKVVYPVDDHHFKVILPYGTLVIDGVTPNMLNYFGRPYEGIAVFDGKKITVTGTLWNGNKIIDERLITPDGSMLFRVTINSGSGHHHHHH

As a reminder, the Kd is the free concentration of one partner at which half of the binding sites on the other are occupied at equilibrium, for simple one-to-one binding.

In the experiment the target is HaloTag[22-297](M2F + D53G + K140E)-12xGly/Ser-LgBiT-3xGly/Ser-6xHis (Rhodococcus rhodochrous, UniProt P0A3G2, A155T/A167V/A172T/A224E/C128F/C176G/D73G/D78G/E257K/H272N/K175M/K195N/L47V/L88M/N227D/S58T/T264A/Y273L/Y87F). Kind of experiment: Biolayer interferometry, polypeptide reporter/synthetic peptide complementation. Type of experiment: binding. The settings on record: biotinylated peptide on streptavidin probes, PBST, 25° C. For orientation: BLI is a label-free optical method that tracks binding on a fibre tip over time.

As for `CC[C@H](C)[C@H](NC(=O)[C@H](CCCCN)NC(=O)[C@H](CCCCN)NC(=O)[C@H](Cc1ccccc1)NC(=O)[C@H](CC(C)C)NC(=O)[C@H](CCCNC(=N)N)NC(=O)[C@H](Cc1c[nH]c2ccccc12)NC(=O)CNC(=O)[C@H](CO)NC(=O)[C@@H](NC(=O)[C@H](CO)NC(=O)[C@@H](NC(=O)CCCC[C@@H]1SC[C@@H]2NC(=O)N[C@@H]21)C(C)C)C(C)C)C(=O)N[C@@H](CO)C(=O)NCC(=O)NCC(=O)N[C@@H](CO)C(=O)NCC(=O)NCC(=O)N[C@@H](CCC(=O)O)C(=O)N[C@@H](CCCNC(=N)N)C(=O)NCC(=O)N[C@H](C(=O)NCC(=O)N[C@@H](Cc1ccccc1)C(=O)N1CCC[C@H]1C(=O)N[C@@H](Cc1ccccc1)C(=O)N[C@@H](CC(=O)O)C(=O)N1CCC[C@H]1C(=O)N[C@@H](Cc1c[nH]cn1)C(=O)N[C@@H](Cc1ccc(O)cc1)C(=O)N[C@H](C(=O)N[C@@H](CCC(=O)O)C(=O)N[C@H](C(=O)N[C@@H](CC(C)C)C(=O)NCC(=O)O)C(C)C)C(C)C)[C@@H](C)O`, the Kd worked out at 782 pM.
